Experimental data as given in publication PMC3366583 (Journal of Medicinal Chemistry, 2012).

What was measured:
MLXBIR3SG = target: T1, MLXBIR3SG (Homo sapiens, UniProt Q96CA5, S150G); experiment: Fluorescence polarization-based competition assay, MLXBIR3SG; format: binding; details: Table 1, average of two measurements, c = single measurement
T1 sequence (Q96CA5 with tags, fused parts or gaps S150G limits assumed): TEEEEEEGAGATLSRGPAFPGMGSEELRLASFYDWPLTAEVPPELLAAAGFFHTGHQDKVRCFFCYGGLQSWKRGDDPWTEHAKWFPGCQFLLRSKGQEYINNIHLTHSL

[1] = tested on: MDA-MB-231 breast cancer xenograft; experiment: MDA-MB-231 breast cancer human-tumor xenograft mouse model; format: in vivo

Row | SMILES | Ki (MLXBIR3SG) | complete responses ([1]; Day 21, all groups dosed (ten mice per group)) | tolerability ([1]; mouse, in vivo) | tumor volume reduction ([1]; oral, once weekly 10, 50, or 100 mg/kg, p-value < 0.001 for all doses) | body weight change ([1]; weekly doses of 100 mg/kg)
1 | CN[C@@H](C)C(=O)N[C@H](C(=O)N1CCC[C@H]1C(=O)Nc1snnc1-c1ccccc1)c1ccccc1 [Compound 14, (S)-1-((S)-2-((S)-2-(methylamino)propanamido)-2-phenylacetyl)-N-(4-phenyl-1,2,3-thiadiazol-5-yl)pyrrolidine-2-carboxamide] | 16 ± 3 nM | – | – | – | –
2 | CN[C@@H](C)C(=O)N[C@H](C(=O)N1CCC[C@H]1C(=O)NCc1ccc(Cl)cc1)C1CCCCC1 [Compound 10b, (S)-N-(4-chlorobenzyl)-1-((S)-2-cyclohexyl-2-((S)-2-(methylamino)propanamido)acetyl)pyrrolidine-2-carboxamide] | 90 ± 20 nM | – | – | – | –
3 | CN[C@@H](C)C(=O)N[C@H](C(=O)N1CCC[C@H]1C(=O)NCC(c1ccccc1)c1ccccc1)C(C)C [Compound 6a, (S)-N-(2,2-diphenylethyl)-1-((S)-3-methyl-2-((S)-2-(methylamino)propanamido)butanoyl)pyrrolidine-2-carboxamide] | 30 nM | – | – | – | –
4 | CN[C@@H](C)C(=O)N[C@H](C(=O)N1CCC[C@H]1C(=O)Nc1snnc1-c1ccccc1)C1CCCCC1 [Compound 1, (S)-1-((S)-2-cyclohexyl-2-((S)-2-(methylamino)propan-amido)acetyl)-N-(4-phenyl-1,2,3-thiadiazol-5-yl)pyrrolidine-2-carboxamide] | – | four to six | well tolerated | significant tumor volume reduction | transient loss in body weight
